Reference: publication PMC7479175, “Selection of Potent Inhibitors of Soluble Epoxide Hydrolase for Usage in Veterinary Medicine” (Frontiers in Veterinary Science, 2020)
Several values for one entry are separate records, joined by “and”; a condition that tells them apart may be missing. Equal values may be shown once.

Amino acid sequences for entries named in this document (tags omitted). Residues count along the entry.
UniProt A0ABI7ZL20, 1-554: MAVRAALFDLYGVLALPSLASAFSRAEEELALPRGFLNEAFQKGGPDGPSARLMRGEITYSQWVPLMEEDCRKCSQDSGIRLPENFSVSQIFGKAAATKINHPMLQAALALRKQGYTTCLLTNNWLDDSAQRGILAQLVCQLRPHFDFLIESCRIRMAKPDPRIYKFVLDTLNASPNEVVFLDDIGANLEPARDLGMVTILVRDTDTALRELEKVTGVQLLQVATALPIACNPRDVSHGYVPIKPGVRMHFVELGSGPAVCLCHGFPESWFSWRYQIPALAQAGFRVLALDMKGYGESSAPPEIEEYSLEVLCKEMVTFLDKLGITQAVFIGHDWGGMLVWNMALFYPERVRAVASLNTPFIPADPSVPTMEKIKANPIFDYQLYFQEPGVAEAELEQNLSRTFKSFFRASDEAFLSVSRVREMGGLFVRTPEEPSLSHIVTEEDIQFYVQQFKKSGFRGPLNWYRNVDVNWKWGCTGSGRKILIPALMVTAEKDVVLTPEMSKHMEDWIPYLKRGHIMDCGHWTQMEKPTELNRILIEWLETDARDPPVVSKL
UniProt A0A8I3NJL8, 1-556: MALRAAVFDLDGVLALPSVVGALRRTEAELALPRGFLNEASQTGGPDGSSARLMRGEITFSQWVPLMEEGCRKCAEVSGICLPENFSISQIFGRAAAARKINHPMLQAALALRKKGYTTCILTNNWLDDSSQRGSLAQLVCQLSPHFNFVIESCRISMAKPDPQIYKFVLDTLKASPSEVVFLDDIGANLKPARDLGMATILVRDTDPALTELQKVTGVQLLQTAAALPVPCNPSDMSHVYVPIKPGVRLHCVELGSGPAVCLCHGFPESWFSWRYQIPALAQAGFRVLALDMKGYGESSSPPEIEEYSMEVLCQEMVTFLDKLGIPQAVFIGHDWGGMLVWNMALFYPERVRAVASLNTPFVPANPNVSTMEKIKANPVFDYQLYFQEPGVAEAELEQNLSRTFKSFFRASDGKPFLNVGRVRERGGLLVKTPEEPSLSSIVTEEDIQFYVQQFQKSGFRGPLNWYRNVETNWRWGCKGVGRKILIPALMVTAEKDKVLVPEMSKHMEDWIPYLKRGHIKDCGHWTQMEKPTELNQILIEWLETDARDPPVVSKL
UniProt F7C407, 1-555: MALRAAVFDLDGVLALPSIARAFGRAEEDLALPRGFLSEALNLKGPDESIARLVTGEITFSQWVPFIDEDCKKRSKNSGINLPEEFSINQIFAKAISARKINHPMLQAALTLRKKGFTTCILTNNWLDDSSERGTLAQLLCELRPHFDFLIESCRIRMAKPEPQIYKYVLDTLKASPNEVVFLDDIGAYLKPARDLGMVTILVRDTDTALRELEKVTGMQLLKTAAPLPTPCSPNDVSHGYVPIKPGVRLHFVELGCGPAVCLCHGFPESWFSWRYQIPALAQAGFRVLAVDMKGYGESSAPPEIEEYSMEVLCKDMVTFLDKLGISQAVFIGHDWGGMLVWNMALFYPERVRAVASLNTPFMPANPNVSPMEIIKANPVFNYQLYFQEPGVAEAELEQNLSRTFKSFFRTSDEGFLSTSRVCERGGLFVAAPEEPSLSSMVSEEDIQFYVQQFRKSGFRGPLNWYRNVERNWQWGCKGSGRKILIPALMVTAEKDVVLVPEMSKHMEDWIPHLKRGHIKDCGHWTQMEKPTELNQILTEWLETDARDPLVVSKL

Tests used:
Format in all cases: biochemical
Cat sEH [1] = target: T1, Cat sEH (Felis catus, UniProt A0ABI7ZL20); assay: Primary screen (end point) of the sEH inhibitor library, PHOME substrate; conditions: [I] = 100 nM, primary end-point screening
Dog sEH [2] = target: T2, Dog sEH (Canis lupus familiaris, UniProt A0A8I3NJL8); assay: as above; conditions: [I] = 100 nM, primary end-point screening
Horse sEH [3] = target: T3, Horse sEH (Equus caballus, UniProt F7C407); assay: as above; conditions: [I] = 100 nM, primary end-point screening
Cat sEH [4] = target: T1, Cat sEH; assay: Secondary screen (kinetic mode), PHOME substrate; conditions: [I] = 100 nM, secondary kinetic mode screening
Dog sEH [5] = target: T2, Dog sEH; assay: Secondary screen (kinetic mode), PHOME substrate; conditions: [I] = 100 nM, secondary kinetic mode screening
Horse sEH [6] = target: T3, Horse sEH; assay: Secondary screen (kinetic mode), PHOME substrate; conditions: [I] = 100 nM, secondary kinetic mode screening

SMILES | Cat sEH Inhibition (%) P. (Cat sEH [1]) [%] | Dog sEH Inhibition (%) P. (Dog sEH [2]) [%] | Horse sEH Inhibition (%) P. (Horse sEH [3]) [%] | Cat sEH Inhibition (%) S. (Cat sEH [4]) [%] | Dog sEH Inhibition (%) S. (Dog sEH [5]) [%] | Horse sEH Inhibition (%) S. (Horse sEH [6]) [%] | Cat sEH Inhibition (%) P. (Cat sEH [1]; 0.1 µM) | Horse sEH Inhibition (%) P. (Horse sEH [3]; 0.1 µM) | Cat sEH Inhibition (%) S. (Cat sEH [4]; 0.1 µM) | Dog sEH Inhibition (%) S. (Dog sEH [5]; 0.1 µM) | Horse sEH Inhibition (%) S. (Horse sEH [6]; 0.1 µM)
CCCCCOC1CCC(NC(=O)NC23CC4CC(CC(C4)C2)C3)CC1 (stereo not drawn) | < 90 | < 90 | 97 | 94 | 88 | 80 |  |  |  |  | 
COC(=O)c1cccc(C(=O)N2CCC(NC(=O)NC34CC5CC(CC(C5)C3)C4)CC2)c1 | 101 | < 90 | < 90 | 103 | 81 | 91 |  |  |  |  | 
CCOC(=O)C(C(=O)OCC)=C1CCC(NC(=O)NC23CC4CC(CC(C4)C2)C3)CC1 (stereo not drawn) | 103 | 88 | 115 | 94 | 82 | 88 |  |  |  |  | 
O=C(Nc1ccc(F)c(C(F)(F)F)c1)N[C@H]1CC[C@H](Oc2ccc(C(=O)O)cc2)CC1 (relative stereo) | 99 | 91 | 99 | 103 | 83 | 88 |  |  |  |  | 
O=C(NC1CCC(Oc2ccc(CO)cc2)CC1)NC12CC3CC(CC(C3)C1)C2 (stereo not drawn) | 96 | < 90 | 91 | 104 | 80 | 90 |  |  |  |  | 
O=C(NCCC1CCCCC1)NC1CCCCC1 |  | < 90 |  |  |  |  | 95% and 100% | 103% and 102% | 99% and 94% | 75% and 80% | 89% and 86%
O=C(NC12CC3CC(CC(C3)C1)C2)N[C@H]1CC[C@@H](Nc2ccc(F)cc2)CC1 (relative stereo) | 92 | 90 | 93 | 92 | 80 | 88 |  |  |  |  | 
CCCCCOC(=O)CCCNC(=O)NC12CC3CC(CC(C3)C1)C2 | 98 | < 90 | 98 | 100 | 80 | 87 |  |  |  |  | 
O=C(Nc1ccc(Cl)c(C(F)(F)F)c1)N[C@H]1CC[C@H](Oc2ccc(C(=O)O)cc2)CC1 (relative stereo) | 100 | 97 | 106 | 104 | 84 | 93 |  |  |  |  | 
O=C(Nc1ccc(OC(F)(F)F)c(F)c1)N[C@H]1CC[C@H](Oc2ccc(C(=O)O)cc2)CC1 (relative stereo) | 106 | 91 | 102 | 101 | 82 | 96 |  |  |  |  | 
O=C(NCCCc1ccccc1)NC12CC3CC(CC(C3)C1)C2 |  |  | 104 |  |  |  | 92% and 102% |  | 99% and 103% | 82% and 77% | 88% and 92%
NC(=O)CCCCCCCCCCCNC(=O)NC12CC3CC(CC(C3)C1)C2 |  | 99 | 105 | 98 | 85 | 91 |  |  |  |  | 
O=C(Nc1ccc(OC(F)(F)F)cc1)N[C@H]1CC[C@@H](Oc2ccc(C(=O)O)cc2)CC1 (relative stereo) |  |  |  |  |  |  | 119% and 99% |  | 96% and 110% |  | 
